The values that follow come from EP2138174A1, “PHARMACEUTICAL COMPOSITION IN THE FORM OF A SUBLINGUAL TABLET CONSISTING OF A NON-STEROIDAL ANTI-INFLAMMATORY AGENT AND AN OPIATE ANALGESIC FOR PAIN MANAGEMENT” (priority 2007, dated 2008).

Structures can show the parent of a compound that is named as a salt.

For one series, the system named is stomach. Briefly: Gastrointestinal side effect measurement (gastric ulcers and erosions, relative to indomethacin). Details: species or system Female rats from Wistar type. To be noted: rat, in vivo. The method, then: Female rats from Wistar type (150-180 g body weight) were subject to fasting 24 hours before experimentation. Indomethacin was supplied (20 mg/kg) to cause gastric ulcer at 100% (Lee et al., 1971 Déciga-Campos et al., 2003); ketorolac (1.0 mg/kg), tramadol (17.8 mg/kg), vehicle (carboxymethylcellolose at 0.5%) and a combination of ketorolac plus tramadol (1.0 and 17.8 mg/kg respectively) was orally delivered simultaneously and to the five groups (six rats each). 2.5 hours later, all the groups received a second administration of the same doses. […] Severity of induced gastric lesions with medicament was calculated as a ratio of number of lesions (stomach ulcer or erosion) caused by provided treatment and the number of lesions caused by indomethacin (100%). This was determined to reflect the side effects induced by medicament. The sum of the area of all the ulcers in the body of each animal was calculated and served as an ulcerative index. Gastric lesion percentage was calculated in the following way: % of gastric lesion = (IUM/IUI) × 100 [formula] wherein IUM is the Medicament Ulcerative Index on test (mm^2) and IUI is the Ulcerative Index for assayed Indomethacin (mm^2).
Synergism between ketorolac and tramadol was calculated with the synergic interaction surface analysis (SIS) and with the isobolographic method (Tallarida et al., 1989). […]

For series [1] the following is noted: human, in vivo. The method, then: Blood samples were taken up to 24 hours after medicament delivery.
In order to determine whether bioavailability is existent or not between both medicaments, a logarithmic transformation of data was carried out and they were analyzed by means of the statistical package WinNonlinTM.
Confidence ranges proposed by FDA for semilogarithmic data in determining bioequivalency of two products are from 80 to 125%.

For series [2] the following is noted: in vivo; cited from earlier work.

`COc1cccc(C2(O)CCCCC2CN(C)C)c1` (stereo not shown) [Tramadol, Tramadol Hydrochloride]: the “Gastric lesion ((Index of ulcers in drug tests / Index of ulcers in indomethacin tests) x 100)” value in the series with stomach stood at 0%. Also, in series [1], the “Ratio (%Ref), Ln (Cmax)” value stood at 124.02 %Ref and the “Ratio (%Ref), LnAUCINF” value came out at 76.38 %Ref. For the same compound, the Analgesic effect half-life result in series [2] is listed as “about 6 hours”.
